{"sequences": {"note": "Amino acid sequences for entries named in this document (tags omitted). Residues count along the entry.", "UniProt P03952, 391-638 limits assumed": "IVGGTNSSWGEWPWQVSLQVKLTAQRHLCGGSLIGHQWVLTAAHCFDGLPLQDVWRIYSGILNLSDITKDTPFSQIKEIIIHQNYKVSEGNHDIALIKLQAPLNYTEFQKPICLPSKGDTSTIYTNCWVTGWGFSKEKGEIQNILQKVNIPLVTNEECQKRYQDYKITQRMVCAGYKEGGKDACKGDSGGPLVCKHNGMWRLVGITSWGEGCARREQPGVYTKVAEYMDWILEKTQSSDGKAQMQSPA", "UniProt P03952, 20-390 partner limits assumed": "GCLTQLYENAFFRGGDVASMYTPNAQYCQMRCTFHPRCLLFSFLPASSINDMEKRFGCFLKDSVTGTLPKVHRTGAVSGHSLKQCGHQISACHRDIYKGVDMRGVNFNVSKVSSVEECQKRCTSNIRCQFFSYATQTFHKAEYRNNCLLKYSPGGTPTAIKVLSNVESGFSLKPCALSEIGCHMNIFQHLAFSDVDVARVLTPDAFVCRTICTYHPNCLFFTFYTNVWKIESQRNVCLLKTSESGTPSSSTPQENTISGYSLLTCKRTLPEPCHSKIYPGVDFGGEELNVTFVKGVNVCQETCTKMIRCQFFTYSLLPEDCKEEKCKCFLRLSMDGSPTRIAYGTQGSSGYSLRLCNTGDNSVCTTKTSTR"}, "source": "patent US9687479B2", "about": "“Multisubstituted aromatic compounds as serine protease inhibitors” (VERSEON CORPORATION, priority 2013, dated 2017)", "biological_target": "Human KLKB1 (Homo sapiens (Human), UniProt P03952)", "test": "KLKB1 kallikrein activity inhibition assay (chromogenic substrate S-2302)", "format": "biochemical", "conditions": "read-out: KLKB1 Activity", "data": [{"smiles": "CCOC(=O)c1cn(-c2ccccn2)nc1NCc1ccc(F)cc1", "values": [{"measurement": "IC50", "value": "> 100", "unit": "µM"}]}]}
